Our source for the IC50 values is US20070276025A1, “Indirubin-Type Compounds, Compositions, and Methods for Their Use” (priority 2003, published 2007).

Chains of the proteins cited; added tags and fusions are not shown.
UniProt Q00535, whole entry, species assumed: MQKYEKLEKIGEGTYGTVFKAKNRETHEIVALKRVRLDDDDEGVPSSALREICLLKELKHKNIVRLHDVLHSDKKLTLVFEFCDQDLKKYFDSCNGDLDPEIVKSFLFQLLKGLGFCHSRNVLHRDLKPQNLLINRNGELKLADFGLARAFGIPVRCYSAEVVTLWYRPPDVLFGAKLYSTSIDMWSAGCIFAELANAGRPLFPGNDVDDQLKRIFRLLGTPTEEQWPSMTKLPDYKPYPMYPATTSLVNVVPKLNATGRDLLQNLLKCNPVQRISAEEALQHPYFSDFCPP

Where two headings read alike, the source gives them in different places.

Test [1] has as its target GSK-3α/β. Kind of test: GSK-3α/β kinase assay (GS-1 peptide, 15 μM ATP). The format is biochemical, porcine.
The target of test [2] is CDK5/p25 (Homo sapiens, UniProt Q00535). As to the kind of experiment: CDK5/p25 kinase assay (histone H1, 15 μM ATP). The class given is biochemical, mammalian.
For test [3], the target named is CDK1/cyclin B. As to the kind of experiment: CDK1/cyclin B kinase assay (histone H1, 15 μM ATP). The format is biochemical, starfish (Marthasterias glacialis). As to conditions: Table 5.

As to 6-Chloroindirubin [5d], the IC50 stood at 140 nM in test [1] (Table 4, read-out: IC50 GSK-3); 140 nM in test [1] (Table 5, read-out: IC50 GSK-3α/β); 140 nM in test [1] (Table 7, GSK-3, read-out: IC50exp).
In the case of `O=C1Nc2ccccc2/C1=C1/Nc2ccccc2C1=O` [5h, indirubin], the IC50 in test [2] (Table 1) and in test [2] (Table 5) was 10000 nM each time.
With `C=Cc1ccc2c(c1)NC(=O)C2=C1Nc2ccccc2C1=NO` [7i, 6-Vinylindirubin-3′-oxime], the IC50 in test [3] came to 1200 nM.
